# The list shows a part of the results, in another mix than the full data. Inconclusive results are not listed. Some salts or complexes appear as unconnected parts, following the source record. The source made the active and inactive calls. Calls follow the shape of the dose curve; as a rule, active = well fitted inhibition curve with a large enough effect; inconclusive = small, poorly fitted or top-dose-only effect; inactive = no such curve, though single readings can be large or run the other way.
# The chains behind the UniProt entries cited, without tags or fusion partners.
# UniProt O94782, whole entry, looked up: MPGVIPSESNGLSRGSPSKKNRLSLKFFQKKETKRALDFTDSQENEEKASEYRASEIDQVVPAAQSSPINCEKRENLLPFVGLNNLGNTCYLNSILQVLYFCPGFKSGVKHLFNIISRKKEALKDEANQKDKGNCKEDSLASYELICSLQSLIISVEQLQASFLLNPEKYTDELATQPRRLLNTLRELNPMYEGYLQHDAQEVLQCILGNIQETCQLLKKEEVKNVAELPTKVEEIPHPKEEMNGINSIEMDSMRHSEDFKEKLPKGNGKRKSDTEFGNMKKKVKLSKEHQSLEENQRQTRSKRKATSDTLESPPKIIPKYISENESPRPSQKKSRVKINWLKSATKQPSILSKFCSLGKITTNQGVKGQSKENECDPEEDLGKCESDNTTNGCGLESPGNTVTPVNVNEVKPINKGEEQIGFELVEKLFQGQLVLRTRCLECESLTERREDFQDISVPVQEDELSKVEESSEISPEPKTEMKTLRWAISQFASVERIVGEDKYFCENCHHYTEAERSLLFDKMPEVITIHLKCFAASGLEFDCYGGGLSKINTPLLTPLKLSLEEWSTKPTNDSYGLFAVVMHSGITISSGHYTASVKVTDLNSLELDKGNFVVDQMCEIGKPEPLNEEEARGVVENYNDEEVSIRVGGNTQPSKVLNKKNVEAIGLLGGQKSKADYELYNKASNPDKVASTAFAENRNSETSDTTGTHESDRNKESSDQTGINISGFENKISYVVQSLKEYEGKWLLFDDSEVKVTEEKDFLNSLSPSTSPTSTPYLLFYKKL
# Target: Ubiquitin carboxyl-terminal hydrolase 1 (Homo sapiens) (UniProt O94782)
# Assay: Inhibitors of USP1/UAF1: Primary Screen; also: nearly all actives have a fitted effect of over 60% in size
# Settings: recombinant USP1/UAF1, Ub-Rhodamine cleavage fluorescence; at 57.1 µM (top of the series)
# Text: Deubiquitinating enzymes (DUBs) are a class of enzymes that can cleave isopeptide bond formed between the C-terminal carboxylate of ubiquitin and a lysine side-chain amino group on the target protein. Among them, ubiquitin specific proteases (USPs) constitute the largest DUB family. Human USPs are emerging as promising targets for pharmacological intervention because of their connection to a number of human diseases, including prostate, colon and breast cancer (1, 2), pediatric acute lymphoblastic leukemia (3), and familial cylindromatosis (4). The advantage of inhibiting USPs lies in the potential specificity of therapeutic intervention that can lead to better efficacy and reduce nonspecific side effects. In a collaboration between the University of Delaware and the NIH Chemical Genomics Center, a high-throughput screen assay was developed to screen for USP1/UAF1 inhibitors. This miniaturized assay has a fluorescent read-out and is used to screen the NIH Molecular Libraries Small Molecule Repository (MLSMR) in order to identify a small molecule that inhibits USP1. NIH Chemical Genomics Center [NCGC] NIH Molecular Libraries Probe Centers Network [MLPCN] MLPCN Grant: DA030552 Assay Submitter (PI): Zhihao Zhuang, University of Delaware 1. Priolo, C., et al. (2006) The isopeptidase USP2a protects human prostate cancer from apoptosis. Cancer Res 66, 8625-8632 2. Popov, N., et al. (2007) The ubiquitin-specific protease USP28 is required for MYC stability. Nat Cell Biol 9, 765-774 3. De Pitta, C., et al. (2005) A leukemia-enriched cDNA microarray platform identifies new transcripts with relevance to the biology of pediatric acute lymphoblastic leukemia. Haematologica 90, 890-898 4. Kovalenko, A., et al. (2003) The tumour suppressor CYLD negatively regulates NF-kappaB signalling by deubiquitination. Nature 424, 801-805
# 3 microliters of reagents (buffer in columns 3 and 4 as negative control and 1nM USP1/UAF1 complex in columns 1, 2, and 5-48) are dispensed into Greiner black solid bottom 1536-well assay plates. Compounds are then transferred via Kalypsys pin tool equipped with 1536-pin array (10nl slotted pins, V&P Scientific, San Diego, CA). Following an incubation step of 15 min at room temperature, 1ul of Ub-Rho substrate (150nM final concentration) is added to initiate the reaction. The plates are immediately centrifuged at 1000 rpm for 15 seconds, and subsequently transferred to a ViewLux high-throughput CCD imager (PerkinElmer) wherein kinetic measurements of fluorescence are acquired using 480 nm excitation/540 nm emission filter set (6 reads every 60 seconds, see Table 1). All reagents are diluted in an assay buffer consisting of 50mM HEPES (pH 7.8), 0.5mM EDTA, 0.1 mg/ml BSA, 1mM TCEP, and 0.01% Tween-20.
# % is scaled to controls: 0 for no effect and ±100 for the full control effect.
row,Compound,"activity change, negative = inhibition"
1,CCCCOc1ccccc1C(=O)NCC1(N2CCOCC2)CCCCC1,inactive: -11.9%
2,CCCOc1ccc(C(=O)NCC2(N(C)C)CCCCC2)cc1OC,inactive: -11.8%
3,O=C(NCC1(N2CCOCC2)CCCCC1)c1ccccc1Br,inactive: -21.2%
4,O=C(OC1CN2CCC1CC2)c1ccc([N+](=O)[O-])cc1 (stereo not drawn),inactive: -20%
5,O=C(NCC1(N2CCCCC2)CCCCC1)c1cncc(Br)c1,inactive: -9.03%
6,COc1ccc2c(c1O)-c1c(O)c(OC)cc3c1[C@H](C2)[N+](C)(C)CC3.O=[N+]([O-])c1cc([N+](=O)[O-])c([O-])c([N+](=O)[O-])c1[O-],inactive: -30.6%
7,CN1CCC(Nc2cccc(F)c2)CC1,inactive: -14.6%
8,Cc1cccc(NC2(C#N)CCN(Cc3ccccc3)CC2)c1,inactive: -10.1%
9,COc1ccc(C(=O)NCC2(N3CCCCC3)CCCCC2)cc1,inactive: -8.19%
10,COc1ccc(C(=O)NCC2(N3CCCCC3)CCCCC2)c(OC)c1OC,inactive: -1.64%
11,CC(C)(C)OC(=O)N1CCC(N(C(=O)c2ccccc2)c2ccc(F)cc2)CC1,inactive: -23.5%
12,O=C(NCC1(N2CCCCC2)CCCCC1)c1ccc(=O)[nH]c1,inactive: -18.7%
13,O=C(NCC1(N2CCCCC2)CCCCC1)c1cccs1,inactive: -1.86%
14,O=C(OC1CN2CCC1CC2)C1c2ccccc2Oc2ccccc21 (stereo not drawn),inactive: -18.3%
15,O=C(NCC1(N2CCCCC2)CCCCC1)c1ccc(Cl)s1,inactive: -3.15%
16,N#CC1(Nc2ccccc2)CCN(Cc2ccccc2)CC1,inactive: 9.18%
17,O=C1C(O)=C([N+](=O)[O-])C(=O)C(O)=C1[N+](=O)[O-],inactive: 6.21%

row,Compound,"activity change, negative = inhibition"
1,COc1ccc(Cl)cc1C(=O)NCC1(N2CCOCC2)CCCCC1,inactive: -15.9%
2,CCOC(=O)N1CCC(Nc2ccc(OC)cc2)CC1,inactive: -10%
3,O=C(NCC1(N2CCCCC2)CCCCC1)c1ccc(Cl)nc1,inactive: -11.1%
4,Cc1cc(C)cc(N(C(=O)c2ccccc2)C2CCN(C(=O)OC(C)(C)C)CC2)c1,inactive: -22.6%
5,O=C(NCC1(N2CCOCC2)CCCCC1)c1cc2ccccc2o1,inactive: -4.85%
6,COc1ccccc1C(=O)NCC1(N2CCOCC2)CCCCC1,inactive: -14.8%
7,O=C(NCC1(N2CCCCC2)CCCCC1)c1ccc(F)cc1,inactive: -23.4%
8,CCCCOc1ccc(C(=O)NCC2(N3CCOCC3)CCCCC2)cc1,inactive: -6.73%
9,O=P1(N(CCCl)CCCl)SCCCS1,inactive: 4.31%
10,CCOC(=O)N1CCC(Nc2ccc(F)cc2)CC1,inactive: -19.3%
11,COc1ccc(NC2CCN(CCc3ccccc3)CC2)c(OC)c1,inactive: 3.85%
12,O=C(NCC1(N2CCOCC2)CCCCC1)c1ccc(Cl)cc1,inactive: -21.9%
13,O=C1CCN(Cc2ccccc2)CC1,inactive: -7.73%
14,CCOc1ccc(C)cc1CN(CCCl)CCCl,inactive: -7.13%
15,COc1cc(C(=O)NCC2(N(C)C)CCCCC2)ccc1OC(F)F,inactive: -12.9%
16,CCOC(=O)N1CCC(Nc2cccc(C)c2)CC1,inactive: -17.4%
